PMC8728441, “Biosynthesis of the redox cofactor mycofactocin is controlled by the transcriptional regulator MftR and induced by long-chain acyl-CoA species” (The Journal of Biological Chemistry, 2021)

The chains behind the UniProt entries cited, without tags or fusion partners.
UniProt A0QSB5, entry or part of it: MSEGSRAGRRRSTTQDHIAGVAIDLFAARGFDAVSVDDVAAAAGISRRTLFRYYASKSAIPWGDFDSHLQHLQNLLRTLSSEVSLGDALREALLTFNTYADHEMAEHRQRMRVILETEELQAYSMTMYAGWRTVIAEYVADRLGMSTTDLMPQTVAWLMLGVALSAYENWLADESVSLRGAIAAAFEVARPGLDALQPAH

Biological target: MftR (WT) (Mycolicibacterium smegmatis, UniProt A0QSB5)
Assay: ITC binding of acyl-CoAs to MftR
Design: species or system Mycobacterium smegmatis mc^2155
Protocol: ITC was performed using TA Nano ITC. MftR was loaded in the sample cell at the concentration of 16 and 250 μM acyl-CoAs (C12–C18) loaded in the syringe. To minimize the effect of buffer mismatch, the stock concentration of acyl-CoAs was prepared using ITC buffer (50 mM Hepes, 50 mM NaCl, and pH 7.5), and the pH was adjusted to within 0.05 units. In addition, MftR was buffer exchanged into ITC buffer using a PD-10 column (GE Life Sciences). The volume of the titrant added at each injection into the sample cell was 2.22 μl. The time interval between the successive injections was 180 s. The temperature of the cell was kept at 25 °C. The data obtained were fit by independent one-site model using NanoAnalyze Data Analysis, version 3.8.0, that was provided with the instrument.

With `CCCCCCCCCCCCCC(=O)SCCNC(=O)CCNC(=O)[C@H](O)C(C)(C)COP(=O)(O)OP(=O)(O)OC[C@H]1O[C@@H](n2cnc3c(N)ncnc32)[C@H](O)[C@@H]1OP(=O)(O)O` [myristoyl-CoA] as the compound, how does the Kd read?
Its Kd is 2 to 4 µM.
